The record followed here is patent US20050202527A1.

The subject of data set [1] is FX variant FpA-IVG (activation peptide replaced with DFLAEGGGVR, native P1'-P3' IVG).
Data set [2] concerns PC variant Fpa-LID (activation peptide replaced with DFLAEGGGVR, native P1'-P3' LID).
Data set [3] concerns PC variant ΔDTEDQED (first 7 residues of the activation peptide deleted).
Data set [4] deals with normal human protein C (recombinant zymogen).
The target in data set [5] is PC variant Fpa-LID (activation peptide replaced with …, native P1'-P3' LID) (human) (UniProt P04070). As to the kind of experiment: cell-based or functional assay.
The target of data set [6] is PC variant Fpa-LFG (human) (UniProt P04070). As to the kind of experiment: cell-based or functional assay.
Data set [7] addresses PC variant Fpa-AIG (human) (UniProt P04070). As to the kind of experiment: cell-based or functional assay.
In data set [8] the target is FX variant FpA-AFG (human) (UniProt P00742). As to the kind of experiment: cell-based or functional assay.
Data set [9] has as its target PC variant Fpa-SIG (human) (UniProt P04070). As to the kind of experiment: cell-based or functional assay.

For thrombin, the kon (specificity constant) of activation by thrombin amounted to 29000 M⁻¹ s⁻¹ in the data set on PC variant Fpa-LFG; 240000 M⁻¹ s⁻¹ with FX variant FpA-AFG; 400 M⁻¹ s⁻¹ in [1]; 160000 M⁻¹ s⁻¹ in the data set on PC variant Fpa-SIG; 2200 M⁻¹ s⁻¹ in the data set with FX variant FpA-AVG; 11000 M⁻¹ s⁻¹ in [2]. In addition, the kon (specificity constant) of activation by thrombin with PC variant Fpa-AIG is 30000 M⁻¹ s⁻¹; in data set [3], 600 M⁻¹ s⁻¹; in data set [4], 300 M⁻¹ s⁻¹; in the data set with FX variant FpA-IFG, 3000 M⁻¹ s⁻¹; in the data set with PC variant Fpa-LIG, 16000 M⁻¹ s⁻¹. Besides, in the data set on PC variant Fpa-SIG, the “gain in activation rate against the PC derivative carrying only FpA (Fpa-LID)” value is listed as “more than 10-fold”. Further, the “fold increase of the activation rate against FpA-IVG” value is “this rate increases 5.5-fold” in the data set with FX variant FpA-AVG and “increases this rate 7.5-fold” with FX variant FpA-IFG. The activation rate constant entry in data set [2] was “an activation rate constant of 2×10^4M^-1s^-1”. Further, the “gain in activation rate against the mutant carrying FpA and D18G (Fpa-LIG)” value in the data set with PC variant Fpa-AIG was “approximately 2-fold”. The substance also showed an activation rate against normal PC in data set [3] of 2 fold. Moreover, in the data set on PC variant Fpa-LIG, the “gain in activation rate from the D18G mutation (against Fpa-LID)” value is on record as “only 1.6-fold”.

Turning to “thrombin (from UniProt P00734 328-622) (enzyme)”, the fold increase of kon against normal PC in [5] was found to be 40 fold; in data set [6], 96 fold; in data set [7] it was 100 fold; in [9] it was 500 fold. In [8], this substance showed a fold increase of kon against FpA-IVG of 625 fold.

In the case of “thrombin in the presence of thrombomodulin”, in data set [4], the kon (specificity constant) of activation by thrombin in the presence of thrombomodulin came out at 500000 M⁻¹ s⁻¹.
